# High-throughput results (PubChem BioAssay)
# Yeast UUG start = alters start codon recognition fidelity in yeast. S. cerevisiae UUG-firefly luciferase reporter, luminescence/redox ratio. activity score, % at 18.7 µM. 0.13% of 350,000 active. AID 602363;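 active = replicate mean at a twofold rise or more, about +100% in these data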;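 also: firefly luciferase made from a UUG start codon reports start codon fidelity; reporter light over untreated wells divided by growth signal over untreated wells; some hits fall short of that in this replicate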
# S100A4 MyoIIA = S100A4-myosin IIA interaction inhibition; S100A4/TAMRA-MyoIIA peptide fluorescence polarization; inhibition, % at 10.7 µM; actives 0.14% (n = 360,000); AID 652163;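 active = mean inhibition of at least 70% across replicates, with every replicate also reaching that level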
#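 Assay system: human S100A4 monomer with TAMRA-labelled myosin IIA peptide / Buffer or medium: Calcium-containing HEPES buffer, pH 7.2 / Reagent: TAMRA-labelled myosin IIA heavy-chain peptide probe, 5 nM / Compound: one dose per compound / Timing: polarization read 5 min after assay mix addition, stable 5–60 min / Benchmarks: neutral control DMSO, positive control TFP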
# SIRT5 inh = sirtuin-5 (human) deacylase inhibition; Q9NXA8; Purified SirT5, succinyl-peptide AMC, trypsin-coupled fluorescence; inhibition, % at 15 µM; actives 1.1% (n = 330,000); AID 652115; in the data active = inhibition above about 15%
# FGF22 binding = binders of recombinant human FGF22 by thermal shift | Q9HCT0 | SYPRO orange fluorescence; percent of sucrose octasulfate shift, DMSO zero | activity (Tm shift, normalised), % at 9.99 µM | actives 1.5% (n = 340,000) | AID 651658;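 active = mean Tm shift, scaled 0 neutral to 100 positive control, at about 1.3% or above, every replicate too, limit read from the data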
# PDI inh = blocks human protein disulfide isomerase activity | P07237 | PDI insulin aggregation turbidity, A650, 90 min | inhibition, % at 10 µM | actives 0.052% (n = 350,000) | AID 588391;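 active = mean inhibition across replicates of 30% or more, whatever share of single replicates reach that level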
# ERp5 block = inhibitors of human ERp5; Q15084; ERp5 insulin aggregation, absorbance 650 nm, 90 min; inhibition, % at 9.99 µM; actives 0.05% (n = 350,000); AID 651711;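 active = mean replicate inhibition above about 25%, with every replicate also reaching it, limit read from the data, passing the limit was not always enough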
# * marks the source's active call; other numbers are inactive results; nt = no result given. Sampled rows, rich in hits. Any-hit rate of the full collection: about 2.2%.
# Screens in order – Yeast UUG start, S100A4 MyoIIA, SIRT5 inh, FGF22 binding, PDI inh, ERp5 block
1) Cc1c(NS(=O)(=O)c2cccc(C(=O)NCc3ccccc3Cl)c2)c(=O)n(-c2ccccc2)n1C
 : -5, -2, 16*, 0, 0, -2
2) Cc1c(NS(=O)(=O)c2ccc(N=NN(C)C)cc2)c(=O)n(-c2ccccc2)n1C
 : -6, -6, 18*, 0, 0, 3
3) Cc1ccc(S(=O)(=O)N[C@@H]2CC[C@H](CCNC(=O)c3ccccc3F)O[C@H]2CO)cc1
 : nt, -20, 0, 0, nt, 7
4) O=C(C[C@@H]1C=C[C@@H](NC(=O)c2ccccc2)[C@H](CO)O1)NCc1ccncn1
 : 7, 1, 3, 0, nt, -1
5) O=C1C[C@@H](c2ccc(O[C@@H]3O[C@H](CO)[C@@H](O)[C@H](O)[C@H]3O)cc2)Oc2cc(O)ccc21
 : -8, 3, nt, 0, 36*, 3
6) COc1cc2c(c(OC3OC(CO)C(O)C(O)C3O)c1)C(=O)CC(c1ccc(O)cc1)O2 (stereo not drawn)
 : nt, 7, -2, 0, nt, 4
7) CC1=NN(c2cccc(C(=O)O)c2)C(=O)/C1=C\C=C/c1ccccc1
 : nt, -1, -2, 43*, 5, 21
8) CCC(=O)N1C[C@@H]2[C@H](c3ccccc31)[C@@H](CO)N2C(=O)CC
 : -9, 73*, 7, -1, nt, 0
9) COc1ccccc1C(=O)N1C[C@H]2[C@@H](c3ccccc31)[C@@H](CO)N2Cc1ccc(F)cc1
 : -13, -3, 16*, 0, nt, 4
10) CCC(=O)N1C[C@H]2[C@@H](c3ccccc31)[C@@H](CO)N2C(=O)CC
 : -5, 38, -1, -1, nt, 1
11) O=C(Nc1cccc(Cl)c1)N1C[C@H]2[C@@H](c3ccccc31)[C@H](CO)N2Cc1ccccc1Cl
 : 1, 7, 2, 84*, nt, 5
12) O=C(c1ccncc1)N1C[C@@H]2[C@H](c3ccccc31)[C@@H](CO)N2C(=O)CN1CCOCC1
 : 5, 97*, 7, -2, nt, -1
13) CCC(=O)Nc1ccc2c(c1)C(=O)N(C)[C@@H]1CC[C@H](CC(=O)NCCCN(C)C)O[C@H]1CO2
 : 3, 1, -3, 0, nt, 0
14) C=CCOC(=O)[C@@H]1[C@H]2C(=O)O[C@H](c3ccccc3)[C@H](c3ccccc3)N2[C@H](c2ccc(OCCOC(=O)[C@H]3C[C@H]4C(=O)N5CCC[C@H]5C(=O)N4[C@H]3c3ccc(O)cc3)cc2)[C@@]12C(=O)Nc1ccccc12
 : -2, 5, 8, 0, nt, -2
15) O=C(C[C@H]1CC[C@@H](NS(=O)(=O)c2ccccc2)[C@@H](CO)O1)NCc1ccccc1F
 : 4, -3, 3, 0, nt, 0
16) O=C(Nc1cc(F)ccc1F)N1C[C@@H]2[C@H](c3ccccc31)[C@H](CO)N2Cc1ccncc1
 : -13, 0, 22*, 0, nt, -3
17) CCC(=O)N1C[C@H]2[C@@H](c3ccccc31)[C@@H](CO)N2Cc1cc(F)ccc1F
 : -5, 7, 28*, 0, nt, -1
18) O=C(Nc1cc(F)ccc1F)N1C[C@H]2[C@@H](c3ccccc31)[C@H](CO)N2Cc1ccncc1
 : 9, 9, 0, -1, nt, 2
19) COc1ccc(CN2CCN(C(=O)c3cccc4ccccc34)CC2)cc1OC
 : -3, 0, -1, 0, 0, -5
20) COc1ccc(CN2CCN(C(=O)c3ccccc3C(=O)c3ccccc3)CC2)cc1F
 : -8, 1, nt, 44*, -9, 7
21) Cc1nc(N)sc1-c1csc(Nc2cccc(C(=O)O)c2)n1
 : 11, -13, 27*, 0, 2, -5
22) CCC(=O)Nc1nc(C)c(-c2csc(Nc3cccc(C(=O)O)c3)n2)s1
 : nt, -5, 2, 1, 1, 1
23) CCCc1cc(NCCCn2ccnc2)n2nc(C)c(-c3ccccc3)c2n1
 : nt, 5, 18*, 0, -3, 4
24) O=C(CSC1=NS(=O)(=O)c2cc(F)ccc2N1)Nc1ccc(F)cc1
 : -14, -2, -2, 1.7*, -1, -3
25) CC(C)c1onc(C(=O)Nc2cccc(Cl)c2)c1[N+](=O)[O-]
 : nt, 4, -5, 43*, -9, -1
26) CC(=O)N(C)C[C@H]1Oc2cc(-c3cccnc3)ccc2S(=O)(=O)N([C@@H](C)CO)C[C@@H]1C
 : -2, 7, -2, 0, nt, -1

# Reformatted: entries from further up
25	CC(C)c1onc(C(=O)Nc2cccc(Cl)c2)c1[N+](=O)[O-]
  Yeast UUG start: nt; S100A4 MyoIIA: 4; SIRT5 inh: -5; FGF22 binding: 43*; PDI inh: -9; ERp5 block: -1

26	CC(=O)N(C)C[C@H]1Oc2cc(-c3cccnc3)ccc2S(=O)(=O)N([C@@H](C)CO)C[C@@H]1C
  Yeast UUG start: -2; S100A4 MyoIIA: 7; SIRT5 inh: -2; FGF22 binding: 0; PDI inh: nt; ERp5 block: -1
